This data set in a line: Pharmacokinetic drug-drug interaction study in rats after oral administration. Type of data set: in vivo, SD (Sprague-Dawley) rats. Particulars: rat plasma, TEL 4 mg/kg oral, alone. The method, then:
SPF (specific pathogen free)-grade male SD (Sprague-Dawley) rats (weight: 230 ± 10 g) were purchased from Beijing Weitong Lihua Experimental Animal Technology Co. Ltd. (Beijing, China). Before starting the experiment, the rats were given sufficient food and water and kept under suitable conditions for one week. Suitable conditions included suitable temperature (23–27 °C), suitable humidity (50 ± 10%), and 12-h light–12-h dark diurnal cycle. All animals were fasted for 12 h before the start of the experiment, but they were allowed to drink water freely. All the animal experimental protocols were conducted in accordance with the UK Animals (Scientific Procedures) Act 1986 and under the guideline approved by the Ethics Committee of Hebei General Hospital (Shijiazhuang, China; No. 2021131).
Twenty-four healthy rats were randomly and equally divided into four groups (six animals in each group). […] Approximately 0.3 mL of blood was collected from the orbital venous plexus in a heparinized centrifuge tube from each rat at 0.25, 0.5, 1, 2, 3, 4, 6, 8, 10, 12, 24, 48, 72, and 96 h after administration. […]
The main pharmacokinetic parameters are presented as mean ± standard deviation and statistically analyzed using SPSS 25.0 software package (SPSS Inc., Chicago, IL, USA). […]

The structures appear in SMILES notation.

`CCCc1nc2c(C)cc(-c3nc4ccccc4n3C)cc2n1Cc1ccc(-c2ccccc2C(=O)O)cc1` [TEL, Telmisartan]: the Vz is given as 13.49 ± 3.97 L/kg.

Values taken from PMC8880132 (Molecules, 2022).
